Antibody variant affinities, Ab-14 heavy chain, assay 1

Binding partner: SARS-CoV-2 spike HR2 peptide, sequence PDVDLGDISGINAS.

Parent scFv Ab-14: VH joined to VL by a 15-residue (Gly4Ser)3 linker. Changes lie in the heavy chain CDRs alone.
VH: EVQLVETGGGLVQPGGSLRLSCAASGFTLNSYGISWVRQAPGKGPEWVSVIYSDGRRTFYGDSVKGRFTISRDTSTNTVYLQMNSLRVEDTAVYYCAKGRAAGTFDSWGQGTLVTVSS
VL: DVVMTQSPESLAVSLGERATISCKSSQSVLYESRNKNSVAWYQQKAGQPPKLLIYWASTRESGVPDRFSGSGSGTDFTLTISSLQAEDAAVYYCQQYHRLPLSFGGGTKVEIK

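The starting antibody came from a phage panning campaign against this peptide. Variants in AAYL49 differ from the parent at up to three CDR positions; double and triple changes were sampled at random. AlphaSeq pools MATa yeast showing the antibodies with MATalpha yeast showing the peptide. Mating (16 h, 30 °C) was followed by selection of diploids and sequencing of their barcodes. Scores were corrected for input abundance and mapped to Kd with protein pairs of known affinity run in the same pool. There are three technical replicates.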

Positions count from residue 1 of the parent VH; S35M puts M in place of S. Scale: log10 of Kd in nM, estimated from mating counts; low values are strong binders. Averages over replicates are reported, and they cover detected replicates only. Where no diploid with the target was found in that replicate, the entry reads "ND": below detection, most likely a poor binder, though not proof of it.

changes | log10 Kd (nM) by replicate | mean log10 Kd (nM) | signal with controls
S35M S63E D106C | ND ND ND | ND | 1 of 9 (3.34)
I51P A102E S107L | ND ND ND | ND | 0 of 9
V64W R100Q D106Y | ND ND ND | ND | 0 of 9
Y52H G55C R57Q | 4.78 ND ND | 4.78 | 0 of 9
N30S R56I F59C | 2.76 2.52 3.07 | 2.78 | 3 of 9 (4.11)
S31G S63C | ND ND ND | ND | 0 of 9
L29I N30I I34V | 2.04 1.67 1.68 | 1.80 | 1 of 9 (2.79)
N30D D106R | 0.87 1.02 0.95 | 0.95 | 2 of 9 (3.55)
V50M Y60E S63H | 3.56 ND ND | 3.56 | 0 of 9
F27D Y32E T58I | ND ND ND | ND | 1 of 9 (3.03)
I34S S63F G103M | ND 5.26 ND | 5.26 | 3 of 9 (4.12)
R57C S63T K65W | 3.78 ND ND | 3.78 | 3 of 9 (4.73)
S31L R100S A101D | 2.13 1.96 2.16 | 2.08 | 4 of 9 (4.63)
T28H G33Y R56M | ND 2.90 ND | 2.90 | 1 of 9 (2.71)
Y60A G61P T104Q | ND ND ND | ND | 0 of 9
V64E T104S | 6.06 ND ND | 6.06 | 2 of 9 (3.65)
G33V I34P D106R | ND 4.98 ND | 4.98 | 5 of 9 (4.08)
S35I R56F D106S | ND ND ND | ND | 2 of 9 (4.35)
F27V G61N D62Y | ND ND ND | ND | 0 of 9
S31D D54A Y60A | ND 3.98 ND | 3.98 | 1 of 9 (2.83)
F27L S31Q A101Q | 4.03 ND 2.72 | 3.38 | 1 of 9 (3.42)
N30E S31D Y32M | 0.88 0.81 0.85 | 0.85 | 0 of 9
G33L V50S D62L | ND ND ND | ND | 0 of 9
G33K D54G G103C | ND ND ND | ND | 0 of 9
G26Y N30A G99Y | ND ND ND | ND | 0 of 9
I34A S63Y T104Y | ND 3.37 ND | 3.37 | 1 of 9 (4.12)
F27N T28L R57F | ND ND ND | ND | 2 of 9 (5.28)
F27Y G33Q S35Y | 4.79 ND ND | 4.79 | 4 of 9 (4.42)
Y32V I34P D62L | ND 5.73 5.53 | 5.63 | 4 of 9 (4.99)
F27T V64Y A102V | ND ND 5.42 | 5.42 | 3 of 9 (4.17)
S53G G55R T58K | ND ND ND | ND | 0 of 9
S53F V64D | ND ND 2.72 | 2.72 | 1 of 9 (3.03)
V50Q T104R | ND ND 3.19 | 3.19 | 1 of 9 (3.73)
T28R L29G G99M | ND ND ND | ND | 0 of 9
Y60D D62W G103I | ND ND ND | ND | 0 of 9
F59P A102L G103I | ND ND ND | ND | 0 of 9
S31R A102V G103H | ND ND ND | ND | 0 of 9
Y52S G103L | ND ND ND | ND | 0 of 9
Y32H F59G Y60W | ND 2.56 ND | 2.56 | 0 of 9
N30H V50E A101G | ND 3.91 ND | 3.91 | 5 of 9 (4.58)
G26M S63C G99D | ND ND ND | ND | 1 of 9 (3.03)
L29P R56P G103P | 5.19 4.72 6.39 | 5.44 | 5 of 9 (4.38)
F27G D62F V64M | ND ND ND | ND | 1 of 9 (2.12)
D54P R57S A101L | ND ND ND | ND | 2 of 9 (3.53)
T58Q Y60K R100D | 5.24 ND ND | 5.24 | 5 of 9 (4.15)
G26D G55F G61W | ND ND ND | ND | 0 of 9
I34T V50F T104Y | ND 4.63 ND | 4.63 | 1 of 9 (3.32)
L29V F59Y S107Q | 1.09 0.97 1.21 | 1.09 | 0 of 9

Again, the first 6 entries without any signal:

| changes | log10 Kd (nM) by replicate | mean log10 Kd (nM) | signal with controls |
|---|---|---|---|
| S35M S63E D106C | ND ND ND | ND | 1 of 9 (3.34) |
| I51P A102E S107L | ND ND ND | ND | 0 of 9 |
| V64W R100Q D106Y | ND ND ND | ND | 0 of 9 |
| S31G S63C | ND ND ND | ND | 0 of 9 |
| F27D Y32E T58I | ND ND ND | ND | 1 of 9 (3.03) |
| Y60A G61P T104Q | ND ND ND | ND | 0 of 9 |

Parent in this assay: reference entry 0.65, copy in this library 4.11 (one replicate of three). Empty control strains, which show no peptide, gave a signal in 15% of pairings with library AAYL49; the median was 4.06 and 95% of these signals were weaker than 2.83. No background was subtracted. The control count says in how many pairings with the empty strains this scFv gave a signal, with their mean in brackets.

The measurements come from Engelhart et al. 2022 (doi:10.1038/s41597-022-01779-4) through the FLAb antibody collection.